Source: publication PMC8868383, “Pharmacokinetics and Pharmacodynamics of Key Components of a Standardized Centella asiatica Product in Cognitively Impaired Older Adults: A Phase 1, Double-Blind, Randomized Clinical Trial” (Antioxidants, 2022)

Assay: Plasma pharmacokinetics after single oral administration of CAP
Details: all time points, 2 g and 4 g CAP

With asiaticoside the Plasma levels was “below the lower limit of quantitation (LLOQ)”.
